AlphaSeq binding of Ab-95 light chain variants to a spike HR2 peptide

Values reported by Engelhart et al. 2022, doi:10.1038/s41597-022-01779-4 (FLAb copy).

Antigen: PDVDLGDISGINAS, a 14-residue peptide of the SARS-CoV-2 spike HR2 region.

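The starting antibody came from a phage panning campaign against this peptide. The library (AAYL52) carries one to three amino acid substitutions per variant, with no insertions or deletions. The assay is AlphaSeq: two haploid yeast populations carry antibody and antigen on their surface. The frequency of each diploid, read from paired DNA barcodes, reflects how well the two displayed proteins bind. A regression on co-assayed BCL2-family reference pairs converts the normalised counts of each replicate to an apparent Kd. Each pool was mated in three replicate cultures.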

Parent: Ab-95, a human scFv built as VH, a (GGGGS)3 linker, VL. Only the CDRs of the light chain vary.
VH: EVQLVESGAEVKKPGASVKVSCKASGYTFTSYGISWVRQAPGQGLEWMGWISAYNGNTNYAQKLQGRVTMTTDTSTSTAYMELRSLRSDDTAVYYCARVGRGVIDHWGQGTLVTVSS
VL: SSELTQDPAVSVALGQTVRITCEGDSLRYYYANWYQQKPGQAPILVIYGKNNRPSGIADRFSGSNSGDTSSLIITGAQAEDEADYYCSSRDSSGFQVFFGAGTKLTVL

Substitutions are numbered in sequence along the VL above, starting at 1 (not Kabat). The Kd shown is the geometric mean over detected replicates; a lower Kd is a better binder. "nd" means that the variant was in the library but no mating with the target was seen in any replicate; the authors take this as a sign of poor binding, and no number exists. Nonspecific signal, from three strains lacking the peptide, appeared in 28% of pairings of library AAYL52, centred on 8.2 µM (5% of these signals below 800 nM); values are not corrected for it.

P54M/S55Y: 1.3 µM (3 of 3 replicates).
R28A/Y29E/V97K: 5.0 µM (1 of 3 replicates).
S26Y/S88M/S92H: 390 nM (3 of 3 replicates).
D25W/S93N/F98P: 7.7 µM (2 of 3 replicates).
R53Y/S92I/V97Q: nd (0 of 3 replicates).
Y29I/P54V/Q96M: 1.9 µM (2 of 3 replicates).
S26I/Y29A/S88Q: 55 nM (3 of 3 replicates).
E23W/D25Y/R53A: 780 nM (2 of 3 replicates).
S26E/A32E/G94M: nd (0 of 3 replicates).
Y29L/G49V/S93P: nd (0 of 3 replicates).
L27C/Y29S: nd (0 of 3 replicates).
S26Y/P54S/S55L: 1.8 µM (2 of 3 replicates).
G24A/S55Q/D91A: 2.3 µM (3 of 3 replicates).
Y31T/S55K/F98W: 1.0 µM (3 of 3 replicates).
S26G/L27N/Y29M: 1.6 µM (3 of 3 replicates).
N52C/G94Q/F98W: 23 µM (1 of 3 replicates).
R53V/S88I/G94E: nd (0 of 3 replicates).
G24E/G49D/S55F: nd (0 of 3 replicates).
P54M/S92P/F95I: 19 µM (1 of 3 replicates).
G24N/Y30R/G94F: 770 nM (3 of 3 replicates).
N51W/P54A/F98G: 20 µM (3 of 3 replicates).
E23R/R53W: 4.2 µM (2 of 3 replicates).
S89E/G94P/F95R: 5.4 µM (3 of 3 replicates).
K50W/G94W/F98Q: 7.5 µM (1 of 3 replicates).
N52V/D91S/F95L: 880 nM (3 of 3 replicates).
A32W/N51T/F95Y: 2.7 µM (1 of 3 replicates).
Y30L/R53Y: nd (0 of 3 replicates).
Y31P/G49I/S55V: 9.7 µM (2 of 3 replicates).
G24P/A32E/N33A: 190 µM (1 of 3 replicates).
D25K/S92A/F95R: 170 nM (3 of 3 replicates).
L27R/S55E/S89F: 2.0 µM (1 of 3 replicates).
A32Q/N51R/S93V: 1.6 µM (1 of 3 replicates).
S26N/G49K/N52A: nd (0 of 3 replicates).
G49F/S93H/F98W: 4.0 µM (1 of 3 replicates).
Y30E/Y31F/S89G: 91 nM (3 of 3 replicates).
G24P/D91F/S93D: 49 µM (2 of 3 replicates).
L27P/R28A/S93P: 4.7 µM (1 of 3 replicates).
L27D/A32M: 2.3 µM (3 of 3 replicates).
G24L/D25R/N33S: nd (0 of 3 replicates).

The first 2 variants above that were never detected:

With R53Y/S92I/V97Q the result was nd (0 of 3 replicates).
With S26E/A32E/G94M the result was nd (0 of 3 replicates).

Parent in this assay: reference entry 200 nM, copy in this library 180 nM.